# System: HT-1080
# Assay: Antiproliferation activity against human HT1080 cells assessed as reduction in cell viability after 72 hrs by Cell Titer-Glo luminescent assay
# Format: functional, cell-based
smiles,measurement,value
CC(C)(C)c1cc(C(c2ccccn2)N2CCOCC2)cc(C(C)(C)C)c1O (stereo unspecified),Activity,Dose-dependent effect

# Source: ChEMBL document CHEMBL4387756, “Discovery of DC_H31 as potential mutant IDH1 inhibitor through NADPH-based high throughput screening” (Bioorg Med Chem, 2019)
